Laboratory results from patent US11448654B2, “Protein-protein interaction assessed by detecting localized coiled coil subunits” (The Regents of the University of California, priority 2017, dated 2022).

By UniProt entry, the sequences of proteins in these tests, tags left out. Residues count along the entry.
UniProt Q00987, 26-109 limits assumed: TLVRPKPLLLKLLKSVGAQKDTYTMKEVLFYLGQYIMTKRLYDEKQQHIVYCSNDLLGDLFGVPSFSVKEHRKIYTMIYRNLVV

Biological target: T1, p53 and HDM2 (Homo sapiens, UniProt Q00987)
T1 construct: expressed in transfected cells; host or cells: HEK293
Assay: Inducible SPARK system for dissociation of p53 and HDM2 in HEK293 cells
Format: cell-based
Conditions: added after rapamycin

COc1ccc(C2=N[C@@H](c3ccc(Cl)cc3)[C@@H](c3ccc(Cl)cc3)N2C(=O)N2CCNC(=O)C2)c(OC(C)C)c1 [Nutlin-3a]
effect on the green fluorescent droplets: not affected
half-time of disassembly of the infrared fluorescent droplets: ~2 min
